Common to all, as to test: Kinase Profiling Assay
Common to all, as to assay type: biochemical
Conditions in all cases: peptide 100 μM

Amino acid sequences for entries named in this document (tags omitted). A change or cut given only in a name is not applied to a line headed by its entry. Residues count along the entry.
UniProt Q9Y5S2: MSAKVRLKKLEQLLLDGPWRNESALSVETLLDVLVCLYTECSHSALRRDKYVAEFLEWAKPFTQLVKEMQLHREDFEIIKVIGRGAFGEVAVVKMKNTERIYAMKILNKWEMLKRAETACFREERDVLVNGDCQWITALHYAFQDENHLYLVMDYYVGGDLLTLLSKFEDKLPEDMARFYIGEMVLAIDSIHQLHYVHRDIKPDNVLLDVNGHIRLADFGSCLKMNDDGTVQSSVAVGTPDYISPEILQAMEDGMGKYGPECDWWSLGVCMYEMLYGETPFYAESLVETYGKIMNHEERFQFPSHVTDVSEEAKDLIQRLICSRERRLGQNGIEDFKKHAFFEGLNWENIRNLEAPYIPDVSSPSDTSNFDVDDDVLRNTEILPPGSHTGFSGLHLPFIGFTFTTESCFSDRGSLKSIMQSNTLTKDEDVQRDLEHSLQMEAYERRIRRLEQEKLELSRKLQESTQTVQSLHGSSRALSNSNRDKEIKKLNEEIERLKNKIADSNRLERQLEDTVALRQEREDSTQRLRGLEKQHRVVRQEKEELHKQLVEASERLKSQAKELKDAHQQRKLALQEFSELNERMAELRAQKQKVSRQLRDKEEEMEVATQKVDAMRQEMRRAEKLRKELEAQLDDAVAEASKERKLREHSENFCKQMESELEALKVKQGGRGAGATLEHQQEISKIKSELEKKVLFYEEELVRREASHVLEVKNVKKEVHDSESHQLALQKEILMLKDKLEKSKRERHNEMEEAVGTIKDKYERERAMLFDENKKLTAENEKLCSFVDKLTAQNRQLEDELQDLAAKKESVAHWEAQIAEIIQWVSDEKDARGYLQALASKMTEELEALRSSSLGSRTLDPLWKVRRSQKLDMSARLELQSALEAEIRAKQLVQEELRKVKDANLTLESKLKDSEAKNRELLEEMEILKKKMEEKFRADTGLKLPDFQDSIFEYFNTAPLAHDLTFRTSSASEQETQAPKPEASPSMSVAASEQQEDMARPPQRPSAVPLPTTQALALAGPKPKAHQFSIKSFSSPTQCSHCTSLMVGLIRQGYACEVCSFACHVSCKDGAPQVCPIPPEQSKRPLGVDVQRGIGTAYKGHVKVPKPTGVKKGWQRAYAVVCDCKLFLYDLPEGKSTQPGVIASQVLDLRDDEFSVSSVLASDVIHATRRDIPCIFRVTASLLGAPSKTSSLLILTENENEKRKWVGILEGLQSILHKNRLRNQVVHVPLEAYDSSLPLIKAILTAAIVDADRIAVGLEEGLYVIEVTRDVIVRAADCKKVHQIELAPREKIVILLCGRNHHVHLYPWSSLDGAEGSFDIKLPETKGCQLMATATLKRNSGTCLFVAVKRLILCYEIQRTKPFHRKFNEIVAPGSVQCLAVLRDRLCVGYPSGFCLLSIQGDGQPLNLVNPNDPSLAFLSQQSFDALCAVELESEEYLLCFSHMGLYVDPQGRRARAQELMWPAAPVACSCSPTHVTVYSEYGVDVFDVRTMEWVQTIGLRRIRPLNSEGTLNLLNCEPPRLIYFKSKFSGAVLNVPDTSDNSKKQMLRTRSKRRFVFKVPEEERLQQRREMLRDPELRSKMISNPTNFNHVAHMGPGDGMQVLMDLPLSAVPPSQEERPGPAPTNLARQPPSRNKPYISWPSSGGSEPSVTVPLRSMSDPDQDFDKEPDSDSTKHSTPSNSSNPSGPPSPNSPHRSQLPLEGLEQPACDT
UniProt Q02763, 23-1124 R849W: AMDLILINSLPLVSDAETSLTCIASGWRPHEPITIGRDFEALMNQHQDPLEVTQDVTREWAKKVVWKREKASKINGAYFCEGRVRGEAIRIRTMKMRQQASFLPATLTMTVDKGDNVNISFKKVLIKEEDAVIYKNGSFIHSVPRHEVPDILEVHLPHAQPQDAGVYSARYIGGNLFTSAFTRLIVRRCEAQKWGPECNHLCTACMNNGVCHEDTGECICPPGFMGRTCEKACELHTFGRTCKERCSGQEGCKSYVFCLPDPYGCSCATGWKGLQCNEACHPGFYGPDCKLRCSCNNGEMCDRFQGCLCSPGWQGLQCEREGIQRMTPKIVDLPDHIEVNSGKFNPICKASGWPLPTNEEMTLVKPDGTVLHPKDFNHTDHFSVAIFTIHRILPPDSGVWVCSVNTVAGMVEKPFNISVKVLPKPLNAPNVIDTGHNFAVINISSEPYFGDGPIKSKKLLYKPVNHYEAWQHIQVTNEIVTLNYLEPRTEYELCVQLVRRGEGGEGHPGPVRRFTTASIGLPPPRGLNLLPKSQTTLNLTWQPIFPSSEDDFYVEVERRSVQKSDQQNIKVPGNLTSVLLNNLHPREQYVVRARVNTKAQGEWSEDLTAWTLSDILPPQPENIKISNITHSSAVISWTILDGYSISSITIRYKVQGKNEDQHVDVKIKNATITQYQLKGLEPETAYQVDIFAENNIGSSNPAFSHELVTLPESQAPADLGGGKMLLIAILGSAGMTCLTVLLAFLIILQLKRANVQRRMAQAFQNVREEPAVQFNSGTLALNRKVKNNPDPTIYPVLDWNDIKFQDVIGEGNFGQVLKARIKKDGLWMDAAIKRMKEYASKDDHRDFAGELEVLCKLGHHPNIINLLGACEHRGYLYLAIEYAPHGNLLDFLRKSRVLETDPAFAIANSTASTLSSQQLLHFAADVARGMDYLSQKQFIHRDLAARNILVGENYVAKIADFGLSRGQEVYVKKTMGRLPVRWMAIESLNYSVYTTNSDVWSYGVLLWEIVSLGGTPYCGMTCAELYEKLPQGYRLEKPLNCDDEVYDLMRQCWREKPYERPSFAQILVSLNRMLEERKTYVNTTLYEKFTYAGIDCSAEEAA
UniProt P49840: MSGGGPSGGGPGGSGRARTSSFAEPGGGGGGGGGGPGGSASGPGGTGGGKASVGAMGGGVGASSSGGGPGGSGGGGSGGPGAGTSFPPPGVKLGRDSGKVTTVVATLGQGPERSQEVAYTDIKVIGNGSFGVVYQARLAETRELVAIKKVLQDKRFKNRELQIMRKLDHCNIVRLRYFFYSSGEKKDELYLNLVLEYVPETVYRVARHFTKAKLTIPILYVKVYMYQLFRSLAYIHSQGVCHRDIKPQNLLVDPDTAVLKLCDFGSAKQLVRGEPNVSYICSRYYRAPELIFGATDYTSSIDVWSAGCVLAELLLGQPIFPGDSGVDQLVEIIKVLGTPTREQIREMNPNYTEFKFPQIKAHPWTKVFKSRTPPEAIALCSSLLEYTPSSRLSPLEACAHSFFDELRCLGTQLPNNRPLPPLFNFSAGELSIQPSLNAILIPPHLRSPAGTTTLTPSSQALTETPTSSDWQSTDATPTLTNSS
UniProt Q05397, whole entry: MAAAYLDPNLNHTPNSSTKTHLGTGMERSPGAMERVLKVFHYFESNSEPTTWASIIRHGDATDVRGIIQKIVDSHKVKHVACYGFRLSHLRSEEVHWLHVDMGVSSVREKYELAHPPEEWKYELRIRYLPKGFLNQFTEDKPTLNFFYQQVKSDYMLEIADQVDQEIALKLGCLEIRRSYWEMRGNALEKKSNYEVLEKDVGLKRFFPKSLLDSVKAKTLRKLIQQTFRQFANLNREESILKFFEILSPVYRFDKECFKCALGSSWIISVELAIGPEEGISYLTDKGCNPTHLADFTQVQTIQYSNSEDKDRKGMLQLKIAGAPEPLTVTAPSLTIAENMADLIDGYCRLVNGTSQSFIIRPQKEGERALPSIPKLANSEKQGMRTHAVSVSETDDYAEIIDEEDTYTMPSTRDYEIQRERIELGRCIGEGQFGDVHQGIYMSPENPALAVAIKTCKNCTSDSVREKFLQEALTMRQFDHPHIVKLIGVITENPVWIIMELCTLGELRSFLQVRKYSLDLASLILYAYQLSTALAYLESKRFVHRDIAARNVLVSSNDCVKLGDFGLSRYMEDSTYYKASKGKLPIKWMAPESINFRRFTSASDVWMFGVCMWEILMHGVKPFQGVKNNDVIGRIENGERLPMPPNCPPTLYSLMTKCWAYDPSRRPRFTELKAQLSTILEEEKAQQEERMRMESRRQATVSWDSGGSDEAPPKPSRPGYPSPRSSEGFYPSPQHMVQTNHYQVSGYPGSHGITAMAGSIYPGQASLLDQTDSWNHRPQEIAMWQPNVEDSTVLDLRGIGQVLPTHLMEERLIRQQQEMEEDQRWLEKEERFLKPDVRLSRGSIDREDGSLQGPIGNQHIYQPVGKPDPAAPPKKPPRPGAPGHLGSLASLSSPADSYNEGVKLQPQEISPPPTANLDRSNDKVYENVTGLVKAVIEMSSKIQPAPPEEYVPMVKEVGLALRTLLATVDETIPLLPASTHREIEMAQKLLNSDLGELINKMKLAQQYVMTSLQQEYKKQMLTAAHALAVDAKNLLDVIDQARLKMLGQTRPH
UniProt Q9H422: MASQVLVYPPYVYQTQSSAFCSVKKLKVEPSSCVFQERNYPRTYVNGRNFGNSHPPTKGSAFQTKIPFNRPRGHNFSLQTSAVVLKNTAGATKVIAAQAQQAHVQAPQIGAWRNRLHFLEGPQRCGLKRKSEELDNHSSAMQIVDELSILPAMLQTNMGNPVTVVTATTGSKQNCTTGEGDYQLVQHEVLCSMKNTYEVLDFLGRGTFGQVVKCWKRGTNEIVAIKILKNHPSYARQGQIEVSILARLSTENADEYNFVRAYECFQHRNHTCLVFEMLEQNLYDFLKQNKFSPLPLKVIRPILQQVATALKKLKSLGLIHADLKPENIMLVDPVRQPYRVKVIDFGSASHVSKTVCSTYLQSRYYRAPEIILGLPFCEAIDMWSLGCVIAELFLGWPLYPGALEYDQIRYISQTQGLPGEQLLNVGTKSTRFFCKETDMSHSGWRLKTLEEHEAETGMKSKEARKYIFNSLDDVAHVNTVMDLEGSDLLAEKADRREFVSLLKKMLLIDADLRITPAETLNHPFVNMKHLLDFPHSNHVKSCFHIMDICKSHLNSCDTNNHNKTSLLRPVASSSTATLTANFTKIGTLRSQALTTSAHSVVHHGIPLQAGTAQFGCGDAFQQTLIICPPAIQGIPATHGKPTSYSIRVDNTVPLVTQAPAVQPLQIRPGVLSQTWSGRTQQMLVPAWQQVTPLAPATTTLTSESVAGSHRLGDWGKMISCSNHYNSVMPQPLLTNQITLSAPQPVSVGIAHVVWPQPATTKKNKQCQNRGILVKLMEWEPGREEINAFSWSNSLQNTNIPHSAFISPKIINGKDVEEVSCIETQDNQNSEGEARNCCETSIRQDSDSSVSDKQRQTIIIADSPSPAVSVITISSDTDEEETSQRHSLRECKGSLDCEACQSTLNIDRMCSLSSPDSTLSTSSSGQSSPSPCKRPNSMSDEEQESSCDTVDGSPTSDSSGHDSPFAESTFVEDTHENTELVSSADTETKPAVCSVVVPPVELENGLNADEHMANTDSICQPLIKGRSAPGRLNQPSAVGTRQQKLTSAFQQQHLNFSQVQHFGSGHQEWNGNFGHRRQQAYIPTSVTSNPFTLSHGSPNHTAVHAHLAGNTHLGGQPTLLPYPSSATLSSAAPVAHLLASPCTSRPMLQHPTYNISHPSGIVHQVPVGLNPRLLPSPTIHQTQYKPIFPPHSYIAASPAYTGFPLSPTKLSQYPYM

One test deals with T1, MRCKβ(h) (Homo sapiens, UniProt Q9Y5S2).
T1 construct: purchased Millipore
The gist of the method:
(§1)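 Measured twice per kinase, activity in presence of MK2 inhibitory peptide was calculated against a 100% activity control after radiometric phosphorylation of a cationic substrate, anionic filter capture and scintillation counting; one of 266 human kinases profiled for specificity.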

Another test addresses CHK2(h) (Homo sapiens, UniProt O96017). An outline of the steps: as §1
A further test concerns the target CK2α2(h) (Homo sapiens, UniProt P19784). The gist of the method: as §1
For a further test, the target named is EGFR(T790M)(h) (Homo sapiens, UniProt P00533, T790M). The gist of the method:
as §1

The target of the next test is T2, SAPK2a(h) (Homo sapiens, UniProt Q16539).
T2 construct: purchased Millipore
An outline of the steps: as §1

Another test concerns the target Tie2(R849W)(h) (Homo sapiens, UniProt Q02763, R849W). The gist of the method: as §1
Another test deals with T3, GSK3α(h) (Homo sapiens, UniProt P49840).
T3 construct: purchased Millipore
The gist of the method:
as §1

The next test addresses eEF-2K(h) (Homo sapiens, UniProt O00418). The gist of the method:
as §1

The next test concerns the target T4, SGK2(h) (Homo sapiens, UniProt Q9HBY8).
T4 construct: purchased Millipore
T4 sequence (Q9HBY8 1-367): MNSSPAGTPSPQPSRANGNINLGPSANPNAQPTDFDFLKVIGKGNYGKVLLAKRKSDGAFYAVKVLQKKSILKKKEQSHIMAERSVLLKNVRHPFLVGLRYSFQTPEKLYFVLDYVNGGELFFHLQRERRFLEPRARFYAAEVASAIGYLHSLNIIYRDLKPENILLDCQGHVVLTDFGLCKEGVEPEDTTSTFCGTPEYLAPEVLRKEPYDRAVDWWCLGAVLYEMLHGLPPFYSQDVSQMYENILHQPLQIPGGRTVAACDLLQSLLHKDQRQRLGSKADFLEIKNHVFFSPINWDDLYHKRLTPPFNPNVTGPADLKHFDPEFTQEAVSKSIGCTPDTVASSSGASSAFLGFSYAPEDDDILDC
The gist of the method: as §1

The target of a further test is FAK(h) (Homo sapiens, UniProt Q05397). An outline of the steps:
as §1

Another test has as its target T5, HIPK3(h) (Homo sapiens, UniProt Q9H422).
T5 construct: purchased Millipore
An outline of the steps:
as §1

For a further test, the target named is T6, GRK5(h) (Homo sapiens, UniProt P34947).
T6 construct: purchased Millipore
The gist of the method: as §1

For a further test, the target named is cKit(V560G)(h) (Homo sapiens, UniProt P10721, V560G). An outline of the steps:
as §1

Another test deals with T7, JAK3(h) (Homo sapiens, UniProt P52333).
T7 construct: purchased Millipore
T7 sequence (P52333 1-1124): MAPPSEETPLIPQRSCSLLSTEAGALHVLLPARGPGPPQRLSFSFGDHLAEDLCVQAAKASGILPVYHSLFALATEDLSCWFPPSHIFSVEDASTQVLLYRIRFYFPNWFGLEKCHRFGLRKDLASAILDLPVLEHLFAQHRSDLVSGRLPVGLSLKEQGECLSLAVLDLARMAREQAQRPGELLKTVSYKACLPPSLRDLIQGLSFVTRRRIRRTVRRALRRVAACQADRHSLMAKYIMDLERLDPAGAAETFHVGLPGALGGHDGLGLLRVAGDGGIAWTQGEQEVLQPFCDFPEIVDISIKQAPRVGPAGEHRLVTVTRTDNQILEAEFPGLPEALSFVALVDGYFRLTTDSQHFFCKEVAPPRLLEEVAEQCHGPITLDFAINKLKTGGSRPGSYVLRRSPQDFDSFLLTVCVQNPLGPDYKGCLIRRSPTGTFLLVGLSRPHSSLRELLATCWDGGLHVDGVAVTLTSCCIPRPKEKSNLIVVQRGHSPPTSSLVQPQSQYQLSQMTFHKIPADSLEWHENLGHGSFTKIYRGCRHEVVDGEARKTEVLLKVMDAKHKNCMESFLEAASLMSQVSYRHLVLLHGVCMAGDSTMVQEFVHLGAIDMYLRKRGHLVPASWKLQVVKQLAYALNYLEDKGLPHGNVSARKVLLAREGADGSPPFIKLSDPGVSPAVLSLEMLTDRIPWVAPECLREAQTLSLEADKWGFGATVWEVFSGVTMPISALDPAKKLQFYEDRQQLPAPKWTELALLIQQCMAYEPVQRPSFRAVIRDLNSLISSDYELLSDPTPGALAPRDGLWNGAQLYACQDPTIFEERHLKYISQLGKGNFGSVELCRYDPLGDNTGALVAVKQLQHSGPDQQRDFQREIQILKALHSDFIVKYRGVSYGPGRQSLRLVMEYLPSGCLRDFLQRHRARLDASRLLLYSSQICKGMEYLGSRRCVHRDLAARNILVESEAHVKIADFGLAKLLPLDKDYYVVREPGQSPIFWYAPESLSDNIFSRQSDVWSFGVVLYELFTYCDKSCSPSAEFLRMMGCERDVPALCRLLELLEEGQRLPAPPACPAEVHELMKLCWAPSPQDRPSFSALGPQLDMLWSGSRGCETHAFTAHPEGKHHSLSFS
The gist of the method:
as §1

For the compound `CC(C)C[C@H](NC(=O)[C@H](C)NC(=O)[C@H](CCCCN)NC(=O)[C@H](C)NC(=O)[C@H](CCCNC(=N)N)NC(=O)[C@H](C)NC(=O)[C@H](CCC(N)=O)NC(=O)[C@H](CCCNC(=N)N)NC(=O)[C@H](C)NC(=O)[C@H](C)NC(=O)[C@H](C)NC(=O)[C@H](CCCNC(=N)N)NC(=O)[C@H](C)NC(=O)[C@@H](N)Cc1ccc(O)cc1)C(=O)N[C@@H](C)C(=O)N[C@@H](CCCNC(=N)N)C(=O)N[C@@H](CCC(N)=O)C(=O)N[C@@H](CC(C)C)C(=O)NCC(=O)N[C@H](C(=O)N[C@@H](C)C(=O)N[C@@H](C)C(=O)O)C(C)C` [MMI-0100], the “% activity” value is recorded as 103% on MRCKβ(h); 104% at CHK2(h); 104% on CK2α2(h); 106% at EGFR(T790M)(h); 110% on SAPK2a(h); 102% on Tie2(R849W)(h). For the same compound, the “% activity” value on GSK3α(h) was 183%; on eEF-2K(h) it was 113%; at SGK2(h), 103%; on FAK(h), 98%; on HIPK3(h), 105%; at GRK5(h), 117%.

In the case of FAKLAARLYRKALARQLGVAA [MMI-0300], the “% activity” value was determined as 105% with CK2α2(h); 117% with Tie2(R849W)(h); 111% with FAK(h); 136% with GRK5(h); 102% in the test with cKit(V560G)(h); 121% with JAK3(h).

As for “YARAAARQARAKALNRQLGVA (Mammal) [MMI-0200]”, the “% activity” value was 102% in the test with MRCKβ(h); 105% with CHK2(h); 113% with EGFR(T790M)(h); 107% in the test with SAPK2a(h); 119% with GSK3α(h); 136% with eEF-2K(h). The “% activity” value with SGK2(h) stood at 119%; with HIPK3(h), 105%; with cKit(V560G)(h) it was 115%; with JAK3(h), 117%.

For the origin of these results see patent publication US20150258192A1, “COMPOSITIONS AND METHODS FOR PREVENTING OR TREATING CHRONIC LUNG ALLOGRAFT DYSFUNCTION (CLAD) AND IDIOPATHIC PULMONARY FIBROSIS (IPF)” (priority 2014, published 2015).
